Experimental data from ChEMBL document CHEMBL4837240 (J Med Chem, 2021).

Assays:
Homo sapiens [1] = organism: Homo sapiens; assay: Selectivity ratio of IC50 for human VEGFR1 to IC50 for human VEGFR3
Homo sapiens [2] = organism: Homo sapiens; assay: Selectivity ratio of IC50 for human VEGFR2 to IC50 for human VEGFR3

SMILES	Ratio IC50 (Homo sapiens [1])	Ratio IC50 (Homo sapiens [2])
CN1CCN(c2ccc(-c3cc4c(N5CCN(C(=O)Nc6ccc(Cl)c(C(F)(F)F)c6)CC5)ncnc4s3)cc2)CC1	> 100	> 100
CCn1c(N)c(C(=O)NC)c(=O)c2ccc(C#C[C@@](C)(O)COC)nc21	130	10
